{
  "sequences": {"note": "The chains behind the UniProt entries cited, without tags or fusion partners. Where a name states a change or a piece, a line headed by the entry shows the natural chain unless it says otherwise.", "UniProt P41143": "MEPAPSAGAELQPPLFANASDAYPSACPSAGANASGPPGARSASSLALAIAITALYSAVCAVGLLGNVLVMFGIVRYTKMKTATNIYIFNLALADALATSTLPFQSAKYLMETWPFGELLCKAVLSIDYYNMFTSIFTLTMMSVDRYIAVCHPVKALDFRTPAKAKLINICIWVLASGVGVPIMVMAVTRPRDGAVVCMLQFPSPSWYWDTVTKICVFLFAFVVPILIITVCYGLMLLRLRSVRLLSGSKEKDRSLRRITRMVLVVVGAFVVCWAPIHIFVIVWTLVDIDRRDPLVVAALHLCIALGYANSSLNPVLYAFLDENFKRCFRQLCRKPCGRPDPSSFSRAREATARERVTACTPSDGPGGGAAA"},
  "source": "paper PMC12886327",
  "molecular_target": "human DOR membrane preparation (δ-opioid receptor) (Homo sapiens, UniProt P41143)",
  "test": "HTRF GTP Gi binding assay, DOR activation",
  "conditions": "95% confidence interval in parentheses",
  "data": [
    {"substance": "SNC-80", "values": [
      {"measurement": "DOR Emax", "setting": "efficacy relative to SNC-80", "result": "100 (89–108) %"},
      {"measurement": "EC50", "setting": "read-out: DOR EC50, potency", "result": 4.5, "unit": "nM"}
    ]}
  ]
}
